Target: SARS-CoV-2 Nsp5 (Severe acute respiratory syndrome coronavirus 2, UniProt P0DTD1)

COc1cccc2[nH]c(C(=O)N[C@@H](CC(C)C)C(=O)N[C@@H](C[C@@H]3CCNC3=O)C(=O)CO)cc12 [PF-00835231]
concentrations that significantly decreased the Gaussia luciferase signal (lowest significantly active dose): 100 µM

Reference: PMC11377810, “A Gaussia luciferase reporter assay for the evaluation of coronavirus Nsp5/3CLpro activity” (Scientific Reports, 2024)
